The chains behind the UniProt entries cited, without tags or fusion partners. Where a name states a change or a piece, a line headed by the entry shows the natural chain unless it says otherwise.
UniProt P31391: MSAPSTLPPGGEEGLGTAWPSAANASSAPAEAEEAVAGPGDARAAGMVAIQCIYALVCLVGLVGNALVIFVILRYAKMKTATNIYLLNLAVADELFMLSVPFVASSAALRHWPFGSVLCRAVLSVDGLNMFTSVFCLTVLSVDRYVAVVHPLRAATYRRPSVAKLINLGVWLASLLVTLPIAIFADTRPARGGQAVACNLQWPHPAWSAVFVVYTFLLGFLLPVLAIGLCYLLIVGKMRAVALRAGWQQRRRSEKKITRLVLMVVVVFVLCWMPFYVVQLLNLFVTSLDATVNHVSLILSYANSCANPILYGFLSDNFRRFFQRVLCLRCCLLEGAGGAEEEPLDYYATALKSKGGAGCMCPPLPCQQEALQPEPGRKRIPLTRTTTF

In patent US9789082B2, “Somatostatin receptor subtype 4 (SSTR4) agonists” (Centrexion Therapeutics Corporation, priority 2013, dated 2017):

Columns and labels:
[1] = Metabolic stability in pooled human liver microsomes (half-life); format: in vitro ADME; conditions: 37° C., 1 μM test compound
Description: The metabolic stability of the compounds according to the invention may be investigated as follows:
The metabolic degradation of the test compound is assayed at 37° C. with pooled human liver microsomes. The final incubation volume of 100 μl per time point contains TRIS buffer pH 7.6 at room temperature (0.1 M), magnesium chloride (5 mM), microsomal protein (1 mg/mL) and the test compound at a final concentration of 1 μM. Following a short preincubation period at 37° C., the reactions are initiated by addition of beta-nicotinamide adenine dinucleotide phosphate, reduced form (NADPH, 1 mM), and terminated by transferring an aliquot into solvent after different time points. After centrifugation (10000 g, 5 min), an aliquot of the supernatant is assayed by LC-MS/MS for the amount of parent compound. The half-life is determined by the slope of the semi-logarithmic plot of the concentration-time profile.

[2] = target: human Somatostatin 4 receptor (SSTR4) (Homo sapiens (Human), UniProt P31391); test: cAMP assay with human somatostatin 4 receptor (hSSTR4 expressing H4 cells); format: cell-based; conditions: read-out: SSTR4 agonism EC50
Description: Camp Assay Method Description for cAMP Assay with Human Somatostatin 4 Receptor
The activation of the SSTR4 receptor (Gi coupled) causes an inhibition of intracellular cAMP after stimulation with Forskolin, which can be quantifiable by use of a suitable assay Kit and an adequate plate reader. This technique is used to characterize pharmacological effects of the SSTR4 receptor agonists by use of hSSTR4 expressing H4 cells.
Compounds are dissolved and diluted in DMSO. The final test solution contains 1% DMSO. […] Cells are centrifuged and suspended in assay buffer (incl. 1:100 diluted Alexa antibody).
For the assay 5 μl of a cell suspension (approximately 5000 cells/well)—incl. Alexa antibody (diluted 1:100) are added into a 384 well MTP microtitre plate excepting one row or column (depending on the plate layout), which is reserved for the standard curve. Then 2 μl of compound sample is added as concentration response curve (e.g. 1e-5 M to 6e-10 M), usually in triplicates. Each assay contains incubations with vehicle controls instead of compound as controls for non-inhibited cAMP generation (100% CTL; ‘high values’) and incubations with 1 μM Somatosatin as controls for full inhibition and background (0% CTL; […]). […] Then the plates are shaken briefly and incubated for 60 min at room temperature. After 60 min 10 μl of the detection mix is added into all wells followed by an additional incubation period of 1 h. The plates are read in a suitable plate reader.
From this ratio, cAMP concentrations are calculated from standard curve and the EC50 is estimated by least square curve fit program.
The EC50 values were obtained with the aid of the above described cAMP ASSAY.

| SMILES | Half-life t1/2 [1] | pEC50 [2] |
| --- | --- | --- |
| Cc1nnc(C(C)(C)NC(=O)[C@H]2[C@@H]3CNC[C@@H]32)c2ccccc12 [Example 77] | >2.17 h |  |
| Cc1ccc(C(C)(C)NC(=O)[C@H]2[C@@H]3CNC[C@@H]32)c2nccn12 [Example 79] |  | 7.08 |
| CC(C)(NC(=O)[C@H]1[C@@H]2CNC[C@@H]21)c1ncnc2ccccc12 [Example 89] | >2.17 h |  |
| CC(C)(NC(=O)[C@H]1[C@@H]2CNC[C@@H]21)c1cncc2ccccc12 [Example 90] | >2.17 h |  |
| Cc1cccc2c(C(C)(C)NC(=O)[C@H]3[C@@H]4CNC[C@@H]43)noc12 [Example 92] | >2.17 h |  |
| CC(C)(NC(=O)[C@H]1[C@@H]2CNC[C@@H]21)c1noc2c(Cl)cccc12 [Example 103] | >2.17 h |  |
| CC(C)(NC(=O)[C@H]1[C@@H]2CNC[C@@H]21)c1noc2c(C3CC3)cccc12 [Example 104] | >2.17 h |  |
| Cc1cc2c(C)ccnc2c(C(C)(C)NC(=O)[C@H]2[C@@H]3CNC[C@@H]32)n1 [Example 170] |  | 7.96 |
| Cc1ccc2cc(C(C)(C)NC(=O)[C@H]3[C@@H]4CNC[C@@H]43)cn2c1 [Example 171] |  | 7.21 |

pEC50: −log10 of the molar value.
